{"source": "BindingDB's records for US9598447", "target": "Nociceptin receptor (Homo sapiens, UniProt P41146)", "test": "In Vitro ORL-1 Receptor Binding Assay"}
{"smiles": "O=c1c(P(=O)(O)O)nc2ccccc2n1[C@H]1C[C@H]2CC[C@@H](C1)N2C12CC3CC(CC1C3)C2", "values": [{"measurement": "EC50", "value": 197, "unit": "nM"}, {"measurement": "Ki", "value": 58.5, "unit": "nM"}]}
